Source: US4789683A, “Benzamido-derivatives” (priority 1981, dated 1988)

System: DA receptors in the brain
Experiment: Block of apomorphine-induced hyperactivity in the rat
Assay type: in vivo, Male Sprague-Dawley rats
Conditions: p.o.

CCN1CCCC1CNC(=O)c1cc(S(N)(=O)=O)ccc1OC (stereo not shown) [Sulpiride, reference compound]
potency to block apomorphine, ED50 Hyperactivity: > 586 µmol/kg
